Key:
[1] = target: human opioid receptor-like (ORL-1) (Homo sapiens, UniProt P41146); test: In vitro ORL-1 receptor functional assay ([35S]GTPγS binding); assay type: biochemical; details: mean ± SEM; for EC50: read-out: ORL-1 GTPγS EC50
μ-opioid receptor = μ-opioid receptor (Homo sapiens, UniProt P35372); test: In vitro mu-opioid receptor functional assay ([35S]GTPγS); assay type: biochemical; details: mean ± SEM; for EC50: read-out: Mu opioid receptor GTPγS EC50
kappa opioid receptor = kappa opioid receptor (Homo sapiens, UniProt P41145); test: In vitro kappa-opioid receptor functional assay ([35S]GTPγS); assay type: biochemical; details: mean ± SEM; for EC50: read-out: Kappa opioid receptor GTPγS EC50
[2] = target: recombinant delta opioid receptor (Homo sapiens, UniProt P41143); test: In vitro delta-opioid receptor binding assay ([3H]-Naltrindole displacement)

SMILES	ORL-1 GTPγS Emax [1] [%]	EC50 [1] [µM]	Mu opioid receptor GTPγS Emax (μ-opioid receptor) [%]	EC50 (μ-opioid receptor) [µM]	Kappa opioid receptor GTPγS Emax (kappa opioid receptor) [%]	EC50 (kappa opioid receptor) [µM]	Ki [2] [µM]
O=C(O)CNc1nc2ccccc2n([C@H]2C[C@H]3CC[C@@H](C2)N3C2CCCCCCC2)c1=O	55.3 ± 5.8	0.4	–	–	–	–	–
O=C(NC(Cc1c[nH]cn1)C(=O)O)c1nc2ccccc2n([C@H]2C[C@H]3CC[C@@H](C2)N3C2CCCCCCC2)c1=O (stereo partly drawn)	53.3 ± 0.6	0.361	20.0 ± 0.6	36.4	63 ± 11	46.5	–
NC1(C(=O)O)CCN(c2nc3ccccc3n([C@H]3C[C@H]4CC[C@@H](C3)N4C3CCCCCCC3)c2=O)CC1	34.5 ± 1.6	0.0944	–	–	13 ± 2.1	4.73	> 20
O=C(O)CC1CCN(c2nc3ccccc3n([C@H]3C[C@H]4CC[C@@H](C3)N4C3CCCCCCC3)c2=O)C1 (stereo partly drawn)	73 ± 2	0.924	–	–	–	–	–
O=C(O)[C@H](Cc1ccccc1)Nc1nc2ccccc2n([C@H]2C[C@H]3CC[C@@H](C2)N3C2CCCCCCC2)c1=O	69	1.21	10.5	1.75	3.7	9.7	–
O=C(O)C(CO)NCCNc1nc2ccccc2n([C@H]2C[C@H]3CC[C@@H](C2)N3C2CCCCCCC2)c1=O (stereo partly drawn)	53.7 ± 2.3	0.085	–	–	9.7 ± 1.8	4.84	> 20
O=C(O)c1nc2ccccc2n([C@H]2C[C@H]3CC[C@@H](C2)N3C2Cc3cccc4cccc2c34)c1=O (stereo partly drawn)	99.3 ± 1.3	1.02	–	–	–	–	–
O=C(O)c1nc2ccccc2n([C@H]2C[C@H]3CC[C@@H](C2)N3C23CC4CC(CC(C4)C2)C3)c1=O	80 ± 4.8	–	–	–	–	–	–
O=C(O)C1CCN(c2nc3ccccc3n([C@H]3C[C@H]4CC[C@@H](C3)N4C3CCCCCCC3)c2=O)CC1	74.7 ± 4.5	1.23	–	–	0.7 ± 0.9	–	–
O=C(Nc1ccc(=O)[nH]c1)c1nc2ccccc2n([C@@H]2C[C@H]3CC[C@@H](C2)N3C2CCCCCCC2)c1=O	115 ± 5	1.36	–	–	–	–	> 100
O=C(O)c1nc2ccccc2n(C2CCN(C3CCCCCCC3)CC2)c1=O	65.3 ± 2.6	0.964	–	–	–	–	–
O=C(O)CN(CCNc1nc2ccccc2n([C@H]2C[C@H]3CC[C@@H](C2)N3C2CCCCCCC2)c1=O)CC(=O)O	101.3	0.0536	–	–	–	–	> 20
O=C(O)CNCCNc1nc2ccccc2n([C@H]2C[C@H]3CC[C@@H](C2)N3C2CCCCCCC2)c1=O	83	0.357	–	–	7.7 ± 0.3	4.57	> 100
CC(=O)NC1(C(=O)O)CCN(c2nc3ccccc3n([C@H]3C[C@H]4CC[C@@H](C3)N4C3CCCCCCC3)c2=O)CC1	46.7 ± 1.9	1.76	–	–	0	> 20	> 20
O=C(O)c1nc2ccccc2n(C2CC3CCC(C2)N3C23CC4CC(CC(C4)C2)C3)c1=O (stereo not drawn)	59.7 ± 0.3	0.0406	23 ± 1	–	–	–	–
O=C(O)c1nc2ccccc2n([C@H]2C[C@H]3CCC[C@@H](C2)N3C2CCCCCCCCC2)c1=O	104 ± 4.6	0.0116	–	–	3.3 ± 1.9	> 20	> 20
O=C1CN(c2nc3ccccc3n([C@H]3C[C@H]4CC[C@@H](C3)N4C3CCCCCCC3)c2=O)CCN1	–	–	–	–	–	–	> 20
O=C(O)Cc1csc(NC(=O)c2nc3ccccc3n([C@H]3C[C@H]4CC[C@@H](C3)N4C3CCCCCCC3)c2=O)n1	29 ± 3	0.503	–	–	–	–	–
O=C(O)c1nc2ccccc2n([C@H]2C[C@H]3CCC[C@@H](C2)N3C2CCCCCCCC2)c1=O	96.5 ± 1.9	0.0111	17.3 ± 2.9	3.39	12.7	1.77	–
CCOC(=O)c1nc2ccccc2n([C@H]2C[C@H]3CC[C@@H](C2)N3C2CCCCCCC2)c1=O	58.3 ± 1.6	0.21	3.0 ± 0.4	0.643	1.0 ± 2.0	–	–
O=C(NO)c1nc2ccccc2n([C@H]2C[C@H]3CC[C@@H](C2)N3C2CCCCCCC2)c1=O	127.0 ± 5.3	0.0313	12.5 ± 1.4	–	17	2.45	> 100

SMILES	ORL-1 GTPγS Emax [1] [%]	EC50 [1] [µM]	Mu opioid receptor GTPγS Emax (μ-opioid receptor) [%]	EC50 (μ-opioid receptor) [µM]	Kappa opioid receptor GTPγS Emax (kappa opioid receptor) [%]	EC50 (kappa opioid receptor) [µM]	Ki [2] [µM]
O=C(O)CN1CC2CN(c3nc4ccccc4n([C@H]4C[C@H]5CC[C@@H](C4)N5C4CCCCCCC4)c3=O)CC2C1 (stereo partly drawn)	81 ± 3	0.397	–	–	0.3	> 20	> 20
O=C(O)CNC(=O)CNc1nc2ccccc2n([C@H]2C[C@H]3CC[C@@H](C2)N3C2CCCCCCC2)c1=O	67 ± 1.5	0.956	–	–	–	–	–
CCOC(=O)c1nc2ccccc2n([C@H]2C[C@H]3CCC[C@@H](C2)N3C2CCCCCCC2)c1=O	58.3 ± 1.9	0.103	7.7 ± 0.6	9.87	10.3 ± 5.3	6.24	–
COc1ccc(NC(=O)c2nc3ccccc3n([C@@H]3C[C@H]4CC[C@@H](C3)N4C3CCCCCCC3)c2=O)cn1	110.5 ± 6.5	2.35	–	–	9.0 ± 1.2	3.78	–
O=C(O)C1(O)CCN(c2nc3ccccc3n([C@H]3C[C@H]4CC[C@@H](C3)N4C3CCCCCCC3)c2=O)CC1	36.5	0.104	11.5	4.94	3.3	3.34	–
O=C(NC(Cc1ccccc1)C(=O)O)c1nc2ccccc2n([C@H]2C[C@H]3CC[C@@H](C2)N3C2CCCCCCC2)c1=O (stereo partly drawn)	80.0 ± 1.7	0.199	8.9 ± 0.5	–	13.0 ± 2.3	3.73	–
O=C(O)c1nc2ccccc2n([C@H]2C[C@H]3CCC[C@@H](C2)N3C2CCCCCCC2)c1=O	87.3 ± 5.0	0.114	11.0 ± 0.6	3.92	3.7 ± 0.3	0.45	–
O=C(O)c1nc2ccccc2n([C@H]2C[C@H]3COC[C@@H](C2)N3C2CCCCCCC2)c1=O	95.8 ± 3.6	4.25	–	–	–	–	–
O=C(O)[C@@H](Nc1nc2ccccc2n([C@H]2C[C@H]3CC[C@@H](C2)N3C2CCCCCCC2)c1=O)c1ccccc1	60	0.946	–	–	6.0 ± 1.5	1.94	> 20
O=C(O)c1nc2ccccc2n([C@H]2C[C@H]3CCC[C@@H](C2)N3C2C3CCCC2CCC3)c1=O (stereo partly drawn)	97.5 ± 1.3	0.106	–	–	–	–	–
O=C(O)[C@H](CO)Nc1nc2ccccc2n([C@H]2C[C@H]3CC[C@@H](C2)N3C2CCCCCCC2)c1=O	29 ± 2	0.0191	–	–	–	–	–
O=C(O)C1CCN(CCNc2nc3ccccc3n([C@H]3C[C@H]4CC[C@@H](C3)N4C3CCCCCCC3)c2=O)CC1	38	0.337	4.2	1.08	9	2.26	> 20
NC1(C(=O)O)CCN(c2nc3ccccc3n([C@H]3C[C@H]4CC[C@@H](C3)N4C3CCCCCCC3)c2=O)C1 (stereo partly drawn)	83.3 ± 5.4	0.125	–	–	6.3 ± 0.9	3.21	> 20
O=C(Nc1ccc(=O)[nH]c1)c1nc2ccccc2n([C@H]2C[C@H]3CC[C@@H](C2)N3C2CCCCCCC2)c1=O	87.3 ± 3.9	0.0676	8.7 ± 0.3	5.11	8.3 ± 0.9	1.36	–
O=C(O)c1nc2ccccc2n([C@H]2C[C@H]3CC[C@@H](C2)N3C2CCCCCCCCC2)c1=O	106.3 ± 0.9	0.0281	14.7 ± 1.5	5.7	20.0	1.26	–
O=C(O)C1CCCN1C(=O)CNc1nc2ccccc2n([C@H]2C[C@H]3CC[C@@H](C2)N3C2CCCCCCC2)c1=O (stereo partly drawn)	73.3 ± 1.7	3.86	–	–	6.3	4.59	> 20
O=C(O)c1ccncc1Nc1nc2ccccc2n([C@H]2C[C@H]3CC[C@@H](C2)N3C2CCCCCCC2)c1=O	58 ± 1.2	0.212	–	–	10.0 ± 1.2	13.4	–
O=C(O)CC1CCN(c2nc3ccccc3n([C@H]3C[C@H]4CC[C@@H](C3)N4C3CCCCCCC3)c2=O)CC1	50.3 ± 4.4	–	–	–	–	–	–
CC(C)(Nc1nc2ccccc2n([C@H]2C[C@H]3CC[C@@H](C2)N3C2CCCCCCC2)c1=O)C(=O)O	–	–	–	–	–	–	> 20
NC(=O)CN(CCNc1nc2ccccc2n([C@H]2C[C@H]3CC[C@@H](C2)N3C2CCCCCCC2)c1=O)CC(=O)O	80.3 ± 3.8	0.277	–	–	9.3 ± 1.3	4.46	> 20
N[C@@H]1CCN(c2nc3ccccc3n([C@H]3C[C@H]4CC[C@@H](C3)N4C3CCCCCCC3)c2=O)C1	–	–	9.7 ± 0.7	–	15.3 ± 4.1	–	–

From US9527840B2, “Substituted-quinoxaline-type piperidine compounds and the uses thereof” (priority 2007, dated 2016)
